Results as given in publication PMC5955836 (ACS chemical neuroscience, 2018).

Sequences of proteins named here, by UniProt entry; tags and fusion partners are left off. A change or cut given only in a name is not applied to a line headed by its entry.
UniProt Q01727: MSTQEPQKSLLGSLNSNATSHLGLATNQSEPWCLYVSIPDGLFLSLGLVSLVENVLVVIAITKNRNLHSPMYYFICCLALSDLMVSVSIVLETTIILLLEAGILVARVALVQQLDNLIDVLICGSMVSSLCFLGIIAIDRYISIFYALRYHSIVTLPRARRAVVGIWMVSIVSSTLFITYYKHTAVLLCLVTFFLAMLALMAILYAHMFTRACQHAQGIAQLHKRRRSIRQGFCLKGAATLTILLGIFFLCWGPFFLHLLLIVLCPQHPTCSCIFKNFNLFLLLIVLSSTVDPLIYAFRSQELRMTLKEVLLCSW
UniProt P56450, whole entry: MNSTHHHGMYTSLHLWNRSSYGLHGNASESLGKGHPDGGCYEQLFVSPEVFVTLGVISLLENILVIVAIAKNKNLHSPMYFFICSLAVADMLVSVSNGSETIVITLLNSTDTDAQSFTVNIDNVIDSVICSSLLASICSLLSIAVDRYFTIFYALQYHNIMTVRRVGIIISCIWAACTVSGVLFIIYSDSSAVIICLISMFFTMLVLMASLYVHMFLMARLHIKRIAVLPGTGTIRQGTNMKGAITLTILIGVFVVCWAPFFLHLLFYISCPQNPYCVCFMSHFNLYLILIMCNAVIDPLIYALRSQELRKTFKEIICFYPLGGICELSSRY
UniProt P33033: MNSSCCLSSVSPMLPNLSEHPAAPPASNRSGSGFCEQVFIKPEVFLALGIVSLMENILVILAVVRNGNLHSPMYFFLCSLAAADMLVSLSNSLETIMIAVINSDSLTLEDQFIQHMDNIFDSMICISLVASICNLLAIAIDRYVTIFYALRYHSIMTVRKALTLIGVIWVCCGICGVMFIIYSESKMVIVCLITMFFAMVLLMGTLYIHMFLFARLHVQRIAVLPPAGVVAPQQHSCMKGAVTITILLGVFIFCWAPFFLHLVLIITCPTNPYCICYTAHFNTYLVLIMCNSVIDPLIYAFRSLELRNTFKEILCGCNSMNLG

Columns and labels:
mMC1R = mMC1R (Mus musculus, UniProt Q01727); assay: cell-based
mMC4R = mMC4R (Mus musculus, UniProt P56450); assay: AlphaScreen cAMP antagonist assay; assay type: cell-based; settings: for selectivity for the mMC4R over the mMC3R: fold more potent at mMC4R than mMC3R; for fold less potent than 1 at the mMC4R: fold change from Ki values, compared to lead ligand 1
mMC3R [1] = target: T1, mMC3R (Mus musculus, UniProt P33033); settings: fold change from Ki values, compared to lead ligand 1
mMC3R [2] = target: T1, mMC3R; assay: cell-based

Structure (SMILES)	EC50 (mMC1R)	selectivity for the mMC4R over the mMC3R (mMC4R)	fold decreased potency compared to 1 at the mMC3R (mMC3R [1])	fold less potent than 1 at the mMC4R (mMC4R)	Kb (mMC3R [2])	fold less potent than 1 at the mMC4R (mMC4R; listed as KAF2039-6)	fold less potent than 1 at the mMC4R (mMC4R; listed as Leu^7)
C[C@@H]1NC(=O)[C@H](CC(N)=O)NC(=O)[C@H](Cc2ccccc2)NC(=O)[C@H](Cc2ccccc2)NC(=O)[C@H](CCCNC(=N)N)NC(=O)[C@@H]2CCCN2C(=O)[C@H]2CCCN2C(=O)[C@H](CCc2ccccc2)NC1=O [Compound 11, c[Pro-Arg-Phe-Phe-Asn-Ala-hPhe-DPro]]	> 100 µM	6 fold	equipotent	–	–	–	–
C[C@@H]1NC(=O)[C@H](CC(N)=O)NC(=O)[C@H](Cc2ccccc2)NC(=O)[C@H](Cc2ccccc2)NC(=O)[C@H](CCCNC(=N)N)NC(=O)[C@@H]2CCCN2C(=O)[C@H]2CCCN2C(=O)[C@H](CC2CCCCC2)NC1=O [Compound 10, c[Pro-Arg-Phe-Phe-Asn-Ala-Cha-DPro]]	> 100 µM	–	3 fold	–	–	–	–
C[C@@H]1NC(=O)[C@H](CC(N)=O)NC(=O)[C@H](Cc2ccccc2)NC(=O)[C@H](Cc2ccccc2)NC(=O)[C@H](CCCNC(=N)N)NC(=O)[C@@H]2CCCN2C(=O)[C@H]2CCCN2C(=O)[C@H](Cc2ccc(O)cc2)NC1=O [Compound 9, c[Pro-Arg-Phe-Phe-Asn-Ala-Tyr-DPro]]	> 100 µM	60 fold	equipotent	equipotent	–	–	–
C[C@@H]1NC(=O)[C@H](CC(N)=O)NC(=O)[C@H](Cc2ccccc2)NC(=O)[C@H](Cc2ccccc2)NC(=O)[C@H](CCCNC(=N)N)NC(=O)[C@@H]2CCCN2C(=O)[C@H]2CCCN2C(=O)[C@H](CO)NC1=O [Compound 3, c[Pro-Arg-Phe-Phe-Asn-Ala-Ser-DPro]]	–	–	–	10 fold	–	–	–
C[C@@H]1NC(=O)[C@H](CC(N)=O)NC(=O)[C@H](Cc2ccccc2)NC(=O)[C@H](Cc2ccccc2)NC(=O)[C@H](CCCNC(=N)N)NC(=O)[C@@H]2CCCN2C(=O)[C@H]2CCCN2C(=O)[C@H](CCCCN)NC1=O [Compound 4, c[Pro-Arg-Phe-Phe-Asn-Ala-Lys-DPro]]	> 100 µM	8 fold	4 fold	–	–	–	–
C[C@@H]1NC(=O)[C@H](CC(N)=O)NC(=O)[C@H](Cc2ccccc2)NC(=O)[C@H](Cc2ccccc2)NC(=O)[C@H](CCCNC(=N)N)NC(=O)[C@@H]2CCCN2C(=O)[C@H]2CCCN2C(=O)[C@H](Cc2c[nH]c3ccccc23)NC1=O [Compound 8, c[Pro-Arg-Phe-Phe-Asn-Ala-Trp-DPro]]	–	–	equipotent	equipotent	–	–	–
C[C@@H]1NC(=O)[C@H](CC(N)=O)NC(=O)[C@H](Cc2ccccc2)NC(=O)[C@H](Cc2ccccc2)NC(=O)[C@H](CCCNC(=N)N)NC(=O)[C@@H]2CCCN2C(=O)[C@H]2CCCN2C(=O)CNC1=O [Compound 2, c[Pro-Arg-Phe-Phe-Asn-Ala-Gly-DPro]]	–	–	–	110 fold	> 3.16 µM	–	–
CCCC[C@@H]1NC(=O)[C@H](C)NC(=O)[C@H](CC(N)=O)NC(=O)[C@H](Cc2ccccc2)NC(=O)[C@H](Cc2ccccc2)NC(=O)[C@H](CCCNC(=N)N)NC(=O)[C@@H]2CCCN2C(=O)[C@H]2CCCN2C1=O [Compound 7, c[Pro-Arg-Phe-Phe-Asn-Ala-Nle-DPro]]	> 100 µM	200 fold	equipotent	equipotent	–	–	–
CC(C)C[C@@H]1NC(=O)[C@H](C)NC(=O)[C@H](CC(N)=O)NC(=O)[C@H](Cc2ccccc2)NC(=O)[C@H](Cc2ccccc2)NC(=O)[C@H](CCCNC(=N)N)NC(=O)[C@@H]2CCCN2C(=O)[C@H]2CCCN2C1=O [Compound 6, c[Pro-Arg-Phe-Phe-Asn-Ala-Leu-DPro]]	> 100 µM	–	–	–	> 3.16 µM	15 fold	approximately 15 fold
